Literature values in PMC11372839, “Unraveling the Potential of Vitamin B3-Derived Salts with a Salicylate Anion as Dermal Active Agents for Acne Treatment” (Molecular Pharmaceutics, 2024).

Design: method as in doi:10.1080/10826076.2015.1057642, PMID 22469554, PMID 31982561
Conditions: frequently used topical acne agents; cited from earlier work

SMILES: CCC[C@@H]1C[C@@H](C(=O)N[C@@H]([C@H]2O[C@H](SC)[C@H](O)[C@@H](O)[C@H]2O)[C@H](C)Cl)N(C)C1 [clindamycin]
- log KOW: 1.60
